Results taken from publication PMC10017709, “Structural basis of selective cannabinoid CB2 receptor activation” (Nature Communications, 2023).

By UniProt entry, the sequences of proteins in these tests, tags left out.
UniProt P34972, whole entry E181D: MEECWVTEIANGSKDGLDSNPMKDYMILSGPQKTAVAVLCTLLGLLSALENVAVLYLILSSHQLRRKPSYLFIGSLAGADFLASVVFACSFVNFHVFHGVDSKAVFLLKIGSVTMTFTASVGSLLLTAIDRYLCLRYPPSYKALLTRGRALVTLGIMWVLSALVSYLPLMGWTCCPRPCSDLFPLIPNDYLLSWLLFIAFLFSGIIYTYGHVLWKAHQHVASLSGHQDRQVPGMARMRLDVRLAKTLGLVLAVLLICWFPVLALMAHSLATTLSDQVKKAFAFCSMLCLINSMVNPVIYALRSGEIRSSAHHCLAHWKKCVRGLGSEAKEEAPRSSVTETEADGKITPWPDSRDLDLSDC
UniProt P34972, whole entry L185H: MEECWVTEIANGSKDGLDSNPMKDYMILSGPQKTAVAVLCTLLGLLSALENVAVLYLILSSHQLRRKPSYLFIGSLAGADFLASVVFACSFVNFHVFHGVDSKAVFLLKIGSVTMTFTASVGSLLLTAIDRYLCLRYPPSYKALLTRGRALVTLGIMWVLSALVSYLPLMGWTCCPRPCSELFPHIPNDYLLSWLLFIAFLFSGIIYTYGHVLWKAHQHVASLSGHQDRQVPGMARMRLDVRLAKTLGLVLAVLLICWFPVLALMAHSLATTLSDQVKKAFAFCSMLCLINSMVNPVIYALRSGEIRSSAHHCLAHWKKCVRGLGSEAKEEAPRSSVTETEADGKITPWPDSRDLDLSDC
UniProt P34972, whole entry K33Q/V36I/C40S/K279T: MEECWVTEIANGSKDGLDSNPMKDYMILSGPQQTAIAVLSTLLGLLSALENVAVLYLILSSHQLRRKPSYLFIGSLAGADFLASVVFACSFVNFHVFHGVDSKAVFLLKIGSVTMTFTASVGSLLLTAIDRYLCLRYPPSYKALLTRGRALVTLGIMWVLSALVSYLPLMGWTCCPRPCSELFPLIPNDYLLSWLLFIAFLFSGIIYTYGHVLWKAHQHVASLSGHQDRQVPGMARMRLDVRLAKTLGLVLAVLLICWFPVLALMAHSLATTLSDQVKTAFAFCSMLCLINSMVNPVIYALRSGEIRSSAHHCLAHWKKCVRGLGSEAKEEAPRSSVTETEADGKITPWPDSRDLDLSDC
UniProt P34972, whole entry I110L: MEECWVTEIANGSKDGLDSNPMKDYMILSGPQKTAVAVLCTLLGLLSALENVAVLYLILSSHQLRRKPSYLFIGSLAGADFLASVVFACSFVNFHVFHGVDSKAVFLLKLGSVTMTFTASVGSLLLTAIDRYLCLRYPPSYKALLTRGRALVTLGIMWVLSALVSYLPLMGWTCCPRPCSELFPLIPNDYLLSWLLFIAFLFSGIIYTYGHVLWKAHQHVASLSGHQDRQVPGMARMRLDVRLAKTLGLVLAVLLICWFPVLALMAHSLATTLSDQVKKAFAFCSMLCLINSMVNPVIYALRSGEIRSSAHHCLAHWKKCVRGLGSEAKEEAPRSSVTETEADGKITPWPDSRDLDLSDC
UniProt P34972, whole entry: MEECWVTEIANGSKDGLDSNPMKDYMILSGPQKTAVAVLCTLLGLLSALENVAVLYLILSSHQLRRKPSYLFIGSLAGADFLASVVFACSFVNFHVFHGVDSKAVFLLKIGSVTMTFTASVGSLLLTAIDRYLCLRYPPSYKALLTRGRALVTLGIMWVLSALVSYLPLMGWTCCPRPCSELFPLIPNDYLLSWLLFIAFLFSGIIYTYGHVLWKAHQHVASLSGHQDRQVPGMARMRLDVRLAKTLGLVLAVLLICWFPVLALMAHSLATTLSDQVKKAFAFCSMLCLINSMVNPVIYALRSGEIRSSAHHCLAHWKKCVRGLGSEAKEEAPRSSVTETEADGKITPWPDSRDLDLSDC
UniProt P34972, whole entry L182I: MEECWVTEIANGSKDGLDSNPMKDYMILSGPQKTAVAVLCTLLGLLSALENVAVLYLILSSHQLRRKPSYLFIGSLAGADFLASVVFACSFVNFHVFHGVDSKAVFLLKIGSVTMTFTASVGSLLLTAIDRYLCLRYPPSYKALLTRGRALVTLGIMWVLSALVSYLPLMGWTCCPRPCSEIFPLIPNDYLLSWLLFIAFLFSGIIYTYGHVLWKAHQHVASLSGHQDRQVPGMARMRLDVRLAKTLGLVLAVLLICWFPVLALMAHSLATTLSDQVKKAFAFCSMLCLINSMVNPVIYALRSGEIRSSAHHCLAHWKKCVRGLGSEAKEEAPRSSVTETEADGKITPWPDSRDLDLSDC
UniProt P34972, whole entry V261L: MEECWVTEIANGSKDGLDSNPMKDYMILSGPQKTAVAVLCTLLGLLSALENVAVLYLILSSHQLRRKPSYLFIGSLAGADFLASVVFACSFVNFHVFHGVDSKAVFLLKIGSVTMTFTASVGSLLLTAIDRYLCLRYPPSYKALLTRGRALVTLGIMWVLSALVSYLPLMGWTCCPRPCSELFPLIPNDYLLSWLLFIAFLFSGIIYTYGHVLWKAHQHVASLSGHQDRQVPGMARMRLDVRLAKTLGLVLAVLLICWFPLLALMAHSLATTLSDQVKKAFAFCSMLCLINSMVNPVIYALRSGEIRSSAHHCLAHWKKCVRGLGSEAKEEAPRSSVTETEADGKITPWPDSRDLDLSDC
UniProt P34972, whole entry H95A: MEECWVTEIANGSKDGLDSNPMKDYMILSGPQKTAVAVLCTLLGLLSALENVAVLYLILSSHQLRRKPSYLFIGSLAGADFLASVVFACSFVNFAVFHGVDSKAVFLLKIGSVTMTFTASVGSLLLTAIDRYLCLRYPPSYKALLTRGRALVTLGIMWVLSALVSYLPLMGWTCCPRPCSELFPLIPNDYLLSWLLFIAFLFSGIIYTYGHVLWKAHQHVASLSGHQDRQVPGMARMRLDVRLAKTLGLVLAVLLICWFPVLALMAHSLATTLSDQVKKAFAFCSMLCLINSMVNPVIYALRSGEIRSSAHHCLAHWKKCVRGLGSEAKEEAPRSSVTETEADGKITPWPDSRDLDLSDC
UniProt P34972, whole entry S285A: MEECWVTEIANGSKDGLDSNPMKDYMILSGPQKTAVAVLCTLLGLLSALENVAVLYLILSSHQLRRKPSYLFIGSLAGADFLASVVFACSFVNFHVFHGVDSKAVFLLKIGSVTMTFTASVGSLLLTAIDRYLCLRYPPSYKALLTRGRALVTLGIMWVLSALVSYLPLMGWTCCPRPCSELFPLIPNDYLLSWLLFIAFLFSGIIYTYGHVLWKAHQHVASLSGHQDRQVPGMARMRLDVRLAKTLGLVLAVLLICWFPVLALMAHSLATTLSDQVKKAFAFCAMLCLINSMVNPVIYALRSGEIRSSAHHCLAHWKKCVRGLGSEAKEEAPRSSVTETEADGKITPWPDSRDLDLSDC

Legend:
CB2R-E181^ECL2D = CB2R-E181^ECL2D (Homo sapiens, UniProt P34972, E181D); experiment: [35S]GTPγS assay, CB2R E181D mutant; assay type: biochemical
CB2R-L185^ECL2H [1] = target: T1, CB2R-L185^ECL2H (Homo sapiens, UniProt P34972, L185H); experiment: [3H]CP55,940 displacement assay, CB2R L185H mutant; assay type: binding
CB2R-Quadruple^TM1,7 [2] = target: T2, CB2R-Quadruple^TM1,7 (Homo sapiens, UniProt P34972, C40S/K279T/K33Q/V36I); experiment: [3H]CP55,940 displacement assay, CB2R quadruple mutant; assay type: binding
CB2R-I110^3.29L [3] = target: T3, CB2R-I110^3.29L (Homo sapiens, UniProt P34972, I110L); experiment: [3H]CP55,940 displacement assay, CB2R I110L mutant; assay type: binding
hCB2R [4] = target: T4, hCB2R (Homo sapiens, UniProt P34972); experiment: [3H]RO6957022 competition association assay; assay type: binding
T4 construct: host or cells: CHO-K1 (CHOK1_hCB2bgal, PathHunter), membranes

CB2R-Quadruple^TM1,7 [5] = target: T2, CB2R-Quadruple^TM1,7; experiment: [35S]GTPγS assay, CB2R quadruple mutant; assay type: biochemical; conditions: Quadruple TM1,7 mutant; <5 when curve fit not finished
CB2R WT [6] = target: T5, CB2R WT (Homo sapiens, UniProt P34972); experiment: [3H]CP55,940 displacement assay, CB2R WT; assay type: binding
CB2R WT [7] = target: T5, CB2R WT; experiment: [35S]GTPγS G protein activation assay, CB2R WT; assay type: biochemical
CB2R-L185^ECL2H [8] = target: T1, CB2R-L185^ECL2H; experiment: [35S]GTPγS assay, CB2R L185H mutant; assay type: biochemical
CB2R-L182^ECL2I = CB2R-L182^ECL2I (Homo sapiens, UniProt P34972, L182I); experiment: [35S]GTPγS assay, CB2R L182I mutant; assay type: biochemical
hCB2R [9] = target: T4, hCB2R; experiment: [3H]RO6957022 displacement assay; assay type: binding
CB2R-V261^6.51L = CB2R-V261^6.51L (Homo sapiens, UniProt P34972, V261L); experiment: [35S]GTPγS assay, CB2R V261L mutant; assay type: biochemical
CB2R-H95^2.65A = CB2R-H95^2.65A (Homo sapiens, UniProt P34972, H95A); experiment: [35S]GTPγS assay, CB2R H95A mutant; assay type: biochemical
CB2R-I110^3.29L [10] = target: T3, CB2R-I110^3.29L; experiment: [35S]GTPγS assay, CB2R I110L mutant; assay type: biochemical
CB2R-S285^7.39A = CB2R-S285^7.39A (Homo sapiens, UniProt P34972, S285A); experiment: [35S]GTPγS assay, CB2R S285A mutant; assay type: biochemical

Compound `CCCCC/C=C\C/C=C\C/C=C\C/C=C\CCCC(=O)NCCO` [AEA, anandamide] has an EC50 (CB2R-E181^ECL2D; E181D mutant, <5 when curve fit not finished, read-out: pEC50 (converted)) greater than 10000 nM, a Ki (CB2R-L185^ECL2H [1]) of 501 nM and a Ki (CB2R-Quadruple^TM1,7 [2]; CB2R Quadruple TM1,7 mutant, <5 when curve fit not finished, read-out: pKi (converted)) of 2510 nM. It also gave a Ki (CB2R-I110^3.29L [3]) of 794 nM, a Kd (hCB2R [4]; KD = koff/kon, read-out: Kinetic KD) of 372 nM and an EC50 (CB2R-Quadruple^TM1,7 [5]) greater than 10000 nM. It also gave a Ki (CB2R WT [6]) of 631 nM, an EC50 (CB2R WT [7]; [35S]GTPγS, HEK293T membranes transiently expressing CB2R WT, read-out: pEC50 (converted)) of 501 nM and an EC50 (CB2R-L185^ECL2H [8]; L185H mutant, HEK293T membranes, read-out: pEC50 (converted)) of 251 nM. The EC50 (CB2R-L182^ECL2I; L182I mutant, <5 when curve fit not finished, read-out: pEC50 (converted)) was greater than 10000 nM and the Ki (hCB2R [9]; CHOK1_hCB2bgal membranes, 10 °C, read-out: Ki) was 485 nM.

`CCCCCCC(C)(C)c1cc(OC)c([C@@H]2C=C(CO)[C@@H]3C[C@H]2C3(C)C)c(OC)c1` [HU308] was tested, and the EC50 (CB2R-E181^ECL2D) was 100 nM, the Ki (CB2R-L185^ECL2H [1]) was 63.1 nM and the Ki (CB2R-Quadruple^TM1,7 [2]) was 79.4 nM. The Ki (CB2R-I110^3.29L [3]) was 50.1 nM, the pKi (CB2R-I110^3.29L [3]) was “not affected” and the EC50 (CB2R-V261^6.51L) was greater than 10000 nM. It also gave a Kd (hCB2R [4]) of 33.7 nM, an EC50 (CB2R-H95^2.65A) of 251 nM and a Ki (CB2R WT [6]) of 15.8 nM. It also gave an EC50 (CB2R WT [7]) of 79.4 nM, an EC50 (CB2R-L185^ECL2H [8]) of 158 nM and an EC50 (CB2R-L182^ECL2I) greater than 10000 nM. For the same compound, the pEC50 (CB2R-L182^ECL2I; L182I mutant, <5 when curve fit not finished) was “less potent”, the EC50 (CB2R-I110^3.29L [10]) was 200 nM and the pEC50 (CB2R-I110^3.29L [10]; I110L mutant, HEK293T membranes) was “not affected”. It also gave an EC50 (CB2R-S285^7.39A) of 1260 nM and a Ki (hCB2R [9]) of 92.4 nM.

Like-named read-outs stand apart in the source and are kept apart here.
